target: Cholinesterase (Homo sapiens, UniProt P06276); assay: ASSAY_NAME: ChEMBL_1788970 (CHEMBL4260704) DESCRIPTION: Reversible inhibition of human plasma BChE using acetylthiocholine iodide as substrate by Ellman spectrophotometric method

Chains of the proteins cited; added tags and fusions are not shown. Residues count along the entry.
UniProt P06276, 29-602 limits assumed: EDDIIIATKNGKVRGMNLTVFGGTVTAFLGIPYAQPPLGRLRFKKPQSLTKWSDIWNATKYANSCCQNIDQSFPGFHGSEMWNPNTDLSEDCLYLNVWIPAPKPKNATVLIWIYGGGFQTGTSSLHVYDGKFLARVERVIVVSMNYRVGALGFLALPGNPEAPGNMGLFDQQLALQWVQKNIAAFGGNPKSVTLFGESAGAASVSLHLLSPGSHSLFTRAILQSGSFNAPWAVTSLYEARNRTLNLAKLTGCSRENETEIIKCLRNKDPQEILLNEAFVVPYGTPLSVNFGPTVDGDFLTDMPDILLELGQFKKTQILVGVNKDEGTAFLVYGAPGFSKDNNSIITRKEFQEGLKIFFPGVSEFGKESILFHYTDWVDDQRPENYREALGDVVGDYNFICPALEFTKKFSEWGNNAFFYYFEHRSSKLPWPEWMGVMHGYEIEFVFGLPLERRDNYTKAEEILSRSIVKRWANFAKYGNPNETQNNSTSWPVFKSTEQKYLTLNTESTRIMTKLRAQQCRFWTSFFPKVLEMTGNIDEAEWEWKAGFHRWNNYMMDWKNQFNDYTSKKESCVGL

NC(=O)c1cc[n+](CCCC[n+]2cc(Cl)c(C=NO)c(Cl)c2)cc1 and NC(=O)c1cc[n+](CCC[n+]2cc(Cl)c(C=NO)c(Cl)c2)cc1 are within 1.5-fold of each other in Ki: 140 µM for the first, 195 µM for the second.

NC(=O)c1cc[n+](CCCC[n+]2ccc(C=NO)c(Cl)c2)cc1 and NC(=O)c1cc[n+](CCC[n+]2ccc(C=NO)c(Cl)c2)cc1 are within 1.5-fold of each other in Ki: 265 µM for the first, 273 µM for the second.

First: NC(=O)c1cc[n+](CC=CC[n+]2ccc(C=NO)c(Cl)c2)cc1
Second: NC(=O)c1cc[n+](CC=CC[n+]2cc(Cl)c(C=NO)c(Cl)c2)cc1
The Ki of the first is 1.6-fold higher: 294 µM for the first, 187 µM for the second.

— BindingDB's records for 30383374
